Laboratory results: ChEMBL document CHEMBL5380794, “Discovery of a Potent and Selective STAT5 PROTAC Degrader with Strong Antitumor Activity In Vivo in Acute Myeloid Leukemia” (J Med Chem, 2023)
Activity calls are given as the source filed them. No cut-off for these calls is given here.

Key:
Type in all cases: cell-based
[1] = biological target: T1, Signal transducer and activator of transcription 5A (Homo sapiens) (UniProt P42229); assay: Inhibition of STAT5 phosphorylation in human MV4-11 cells assessed as reduction in STAT3 phosphorylation at Y694 residue at 1 uM measured for 6 hrs by Western blot analysis
T1 sequence (whole entry): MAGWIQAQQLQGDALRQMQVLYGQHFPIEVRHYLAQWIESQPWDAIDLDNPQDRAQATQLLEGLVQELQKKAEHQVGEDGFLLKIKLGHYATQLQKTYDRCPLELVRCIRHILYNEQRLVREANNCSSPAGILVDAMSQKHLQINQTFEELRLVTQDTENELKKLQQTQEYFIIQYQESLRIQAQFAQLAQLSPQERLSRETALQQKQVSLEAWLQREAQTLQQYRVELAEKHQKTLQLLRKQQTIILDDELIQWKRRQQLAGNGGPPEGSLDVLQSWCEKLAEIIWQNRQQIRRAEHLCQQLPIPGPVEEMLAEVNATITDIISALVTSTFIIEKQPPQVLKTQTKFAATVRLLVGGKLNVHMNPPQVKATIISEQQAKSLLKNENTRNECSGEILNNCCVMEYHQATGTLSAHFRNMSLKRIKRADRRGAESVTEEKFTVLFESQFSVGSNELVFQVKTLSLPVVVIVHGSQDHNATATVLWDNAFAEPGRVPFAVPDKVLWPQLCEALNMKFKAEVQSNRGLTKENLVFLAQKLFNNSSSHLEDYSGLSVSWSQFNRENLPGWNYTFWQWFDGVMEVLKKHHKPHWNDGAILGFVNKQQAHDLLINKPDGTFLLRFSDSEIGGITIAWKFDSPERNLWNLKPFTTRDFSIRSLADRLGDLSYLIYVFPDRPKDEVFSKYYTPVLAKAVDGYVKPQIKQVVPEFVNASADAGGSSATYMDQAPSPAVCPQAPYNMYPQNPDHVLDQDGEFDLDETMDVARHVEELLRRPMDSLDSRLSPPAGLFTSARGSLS

[2] = biological target: T1, Signal transducer and activator of transcription 5A (Homo sapiens); assay: Inhibition of STAT5A phosphorylation in human SKNO-1 cells assessed as reduction in STAT5A level at 0.2 uM measured for 18 hrs by Western blot analysis
[3] = biological target: T2, Signal transducer and activator of transcription 5B (Homo sapiens) (UniProt P51692); assay: Inhibition of STAT5B phosphorylation in human SKNO-1 cells assessed as reduction in STAT5A level at 0.2 uM measured for 18 hrs by Western blot analysis
T2 sequence (whole entry): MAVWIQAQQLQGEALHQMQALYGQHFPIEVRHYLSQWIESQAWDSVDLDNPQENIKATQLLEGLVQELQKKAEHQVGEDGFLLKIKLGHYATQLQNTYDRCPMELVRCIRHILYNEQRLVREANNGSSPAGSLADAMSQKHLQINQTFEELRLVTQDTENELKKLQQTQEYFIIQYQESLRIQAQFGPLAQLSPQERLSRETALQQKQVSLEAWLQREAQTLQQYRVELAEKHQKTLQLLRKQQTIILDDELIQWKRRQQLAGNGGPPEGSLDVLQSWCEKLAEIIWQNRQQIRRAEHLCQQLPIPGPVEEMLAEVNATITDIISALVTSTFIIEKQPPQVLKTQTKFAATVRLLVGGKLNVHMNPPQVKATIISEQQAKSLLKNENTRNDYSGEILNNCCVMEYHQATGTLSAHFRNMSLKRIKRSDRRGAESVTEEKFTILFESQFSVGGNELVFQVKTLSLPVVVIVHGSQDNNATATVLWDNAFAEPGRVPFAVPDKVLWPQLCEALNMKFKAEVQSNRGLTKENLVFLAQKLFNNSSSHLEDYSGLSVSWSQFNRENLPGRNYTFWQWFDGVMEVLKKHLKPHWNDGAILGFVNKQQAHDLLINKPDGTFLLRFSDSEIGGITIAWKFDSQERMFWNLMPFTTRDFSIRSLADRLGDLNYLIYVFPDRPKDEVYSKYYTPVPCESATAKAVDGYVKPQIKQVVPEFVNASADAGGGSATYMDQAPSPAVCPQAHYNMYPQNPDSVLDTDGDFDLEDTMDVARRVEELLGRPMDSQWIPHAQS

[4] = biological target: T1, Signal transducer and activator of transcription 5A (Homo sapiens); assay: Inhibition of STAT5 phosphorylation in human SKNO-1 cells assessed as reduction in STAT3 phosphorylation at Y694 residue at 1 uM measured for 18 hrs by Western blot analysis
[5] = biological target: T1, Signal transducer and activator of transcription 5A (Homo sapiens); assay: Inhibition of STAT5 phosphorylation in human MV4-11 cells assessed as reduction in STAT5 level at 0.2 uM measured for 6 hrs by Western blot analysis
[6] = biological target: T3, STAT5A/STAT5B (Homo sapiens) (UniProt P42229+P51692); assay: Induction of STAT5A/5B degradation in human SKNO-1 cells assessed as maximal degradation measured for 18 hrs by immunoblotting analysis relative to control
[7] = biological target: T3, STAT5A/STAT5B (Homo sapiens); assay: Induction of STAT5A/5B degradation in human MV4-11 cells assessed as maximal degradation measured for 6 hrs by immunoblotting analysis relative to control
[8] = biological target: T3, STAT5A/STAT5B (Homo sapiens); assay: Induction of STAT5A/5B degradation in human Kasumi-3 cells assessed as maximal degradation measured for 18 hrs by immunoblotting analysis relative to control
[9] = biological target: T3, STAT5A/STAT5B (Homo sapiens); assay: Induction of STAT5A/5B degradation in human RS4-11 cells assessed as maximal degradation measured for 18 hrs by immunoblotting analysis relative to control
[10] = biological target: T3, STAT5A/STAT5B (Homo sapiens); assay: Induction of STAT5A/5B degradation in human OCI-AML2 cells assessed as maximal degradation measured for 18 hrs by immunoblotting analysis relative to control
[11] = biological target: T3, STAT5A/STAT5B (Homo sapiens); assay: Induction of STAT5A/5B degradation in human OCI-M2 cells assessed as maximal degradation measured for 18 hrs by immunoblotting analysis relative to control
[12] = biological target: T3, STAT5A/STAT5B (Homo sapiens); assay: Induction of STAT5A/5B degradation in human BDCM cells assessed as maximal degradation measured for 18 hrs by immunoblotting analysis relative to control
[13] = biological target: T3, STAT5A/STAT5B (Homo sapiens); assay: Induction of STAT5A/5B degradation in human MOLM-13 cells assessed as maximal degradation measured for 18 hrs by immunoblotting analysis relative to control
[14] = biological target: T3, STAT5A/STAT5B (Homo sapiens); assay: Induction of STAT5A/5B degradation in human HL-60 cells assessed as maximal degradation measured for 18 hrs by immunoblotting analysis relative to control
[15] = biological target: T1, Signal transducer and activator of transcription 5A (Homo sapiens); assay: Induction of STAT5 degradation in human SKNO-1 cells assessed as reduction in phosphorylated STAT5 level by measuring maximal efficacy measured for 18 hrs by immunoblotting analysis relative to control
[16] = biological target: T1, Signal transducer and activator of transcription 5A (Homo sapiens); assay: Induction of STAT5 degradation in human MV4-11 cells assessed as reduction in phosphorylated STAT5 level by measuring maximal efficacy measured for 6 hrs by immunoblotting analysis relative to control
[17] = biological target: T1, Signal transducer and activator of transcription 5A (Homo sapiens); assay: Induction of STAT5 degradation in human Kasumi-3 cells assessed as reduction in phosphorylated STAT5 level by measuring maximal efficacy measured for 18 hrs by immunoblotting analysis relative to control
[18] = biological target: T1, Signal transducer and activator of transcription 5A (Homo sapiens); assay: Induction of STAT5 degradation in human RS4-11 cells assessed as reduction in phosphorylated STAT5 level by measuring maximal efficacy measured for 18 hrs by immunoblotting analysis relative to control
[19] = biological target: T1, Signal transducer and activator of transcription 5A (Homo sapiens); assay: Induction of STAT5 degradation in human OCI-AML2 cells assessed as reduction in phosphorylated STAT5 level by measuring maximal efficacy measured for 18 hrs by immunoblotting analysis relative to control
[20] = biological target: T1, Signal transducer and activator of transcription 5A (Homo sapiens); assay: Induction of STAT5 degradation in human OCI-M2 cells assessed as reduction in phosphorylated STAT5 level by measuring maximal efficacy measured for 18 hrs by immunoblotting analysis relative to control
[21] = biological target: T1, Signal transducer and activator of transcription 5A (Homo sapiens); assay: Induction of STAT5 degradation in human BDCM cells assessed as reduction in phosphorylated STAT5 level by measuring maximal efficacy measured for 18 hrs by immunoblotting analysis relative to control
[22] = biological target: T1, Signal transducer and activator of transcription 5A (Homo sapiens); assay: Induction of STAT5 degradation in human MOLM-13 cells assessed as reduction in phosphorylated STAT5 level by measuring maximal efficacy measured for 18 hrs by immunoblotting analysis relative to control
[23] = biological target: T1, Signal transducer and activator of transcription 5A (Homo sapiens); assay: Induction of STAT5 degradation in human HL-60 cells assessed as reduction in phosphorylated STAT5 level by measuring maximal efficacy measured for 18 hrs by immunoblotting analysis relative to control

Compound: CN(CCCC#Cc1cccc2c1CN(C1CCC(=O)NC1=O)C2=O)C(=O)CCN(C(=O)[C@@H]1CCCN1C(=O)[C@@H](NC(=O)c1cc2cc(C(F)(F)P(=O)(O)O)ccc2s1)C(C)(C)C)c1ccc(-c2nccs2)cc1 (stereo partly drawn)
- inhibition [1]: > 95%
- inhibition [2]: > 75%
- inhibition [3]: > 72%
- inhibition [4]: > 95%
- inhibition [5]: > 80%
- Emax [6]: > 95%
- Emax [7]: > 95%
- Emax [8]: > 95%
- Emax [9]: > 95%
- Emax [10]: > 95%
- Emax [11]: 90%
- Emax [12]: > 95%
- Emax [13]: inactive
- Emax [14]: inactive
- Emax [15]: > 95%
- Emax [16]: > 95%
- Emax [17]: > 95%
- Emax [18]: inactive
- Emax [19]: inactive
- Emax [20]: inactive
- Emax [21]: inactive
- Emax [22]: inactive
- Emax [23]: inactive
